Antibody variant affinities, Ab-14 light chain, assay 1

From the AlphaSeq antibody data of Engelhart et al. 2022 (doi:10.1038/s41597-022-01779-4), copy in the FLAb collection.

The target is the same throughout: PDVDLGDISGINAS, from the HR2 region of SARS-CoV-2 spike.

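The parent was found by panning a naive human phage display library on the peptide. AAYL50 was designed without a model: most single CDR substitutions and a random sample of double and triple ones. AlphaSeq pools MATa yeast showing the antibodies with MATalpha yeast showing the peptide. Pairs that bind mate more often; barcode pairs of the diploids are counted by sequencing. Scores were corrected for input abundance and mapped to Kd with protein pairs of known affinity run in the same pool. There are three technical replicates.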

Parent: Ab-14, a human scFv built as VH, a 15-residue (Gly4Ser)3 linker, VL. Only the CDRs of the light chain vary.
VH: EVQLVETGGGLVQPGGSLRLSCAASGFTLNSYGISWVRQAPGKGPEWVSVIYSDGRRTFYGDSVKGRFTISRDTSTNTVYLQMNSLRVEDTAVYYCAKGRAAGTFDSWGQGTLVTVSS
VL: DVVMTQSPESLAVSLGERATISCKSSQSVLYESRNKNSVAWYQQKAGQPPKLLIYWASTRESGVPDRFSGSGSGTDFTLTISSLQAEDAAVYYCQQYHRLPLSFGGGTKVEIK

The parent's light chain CDRs are KSSQSVLYESRNKNSVA, WASTRES, QQYHRLPLS; each variant's own CDRs replace them letter for letter. Kd is apparent (estimated from mating counts) and averaged on the log scale over replicates with a signal. Smaller is tighter. A pair that was not seen in any replicate is written "nd"; this usually means weak binding, but a binder can also be missed.

apparent Kd,seen in,signal with controls,CDR-L1,CDR-L2,CDR-L3
1.4 µM,3/3,3/9,KSSQSVLYEIRNKNSVA,WAGTRES,QQYCRLPLS
62 µM,2/3,5/9,KSSQSVLYESRHKNSVA,MASTRES,HQYHRLPLS
17 µM,3/3,2/9,KSSISVLYESRNKNHVA,WASTRES,QQYHRLPLS
4.6 nM,3/3,3/9,KSSQSVLYESRNKNSVA,WASTRVS,QQYHRMWLS
350 nM,3/3,3/9,KSSQSVLYESLNKNSVA,WASTRES,QQYHLLPLS
600 nM,3/3,5/9,KSSQWVLCESRNKNSVA,LASTRES,QQYHRLPLS
46 nM,3/3,2/9,KSSQSVLYESRNKNSVA,WASTREG,QQYHRLPLG
5.0 µM,3/3,3/9,KSSQSVLYESRPKNSHA,EASTRES,QQYHRLPLS
20 µM,3/3,6/9,SSSQSVLYESRNKNSCA,WCSTRES,QQYHRLPLS
8.7 µM,2/3,0/9,KSSQEVLYESRNKNSWA,WASTRES,QQFHRLPLS
38 nM,3/3,1/9,KSSNSVLYESRNKNSVA,WASTRES,QWYHRLPLW
24 µM,3/3,2/9,KSSQSVLYESRNKNSVT,WASTRES,QQYWRLPLS
190 µM,1/3,2/9,KSSQSVLYESRNKNSVA,WAITRES,HQYHRIPLS
nd,0/3,1/9,KSSQEVLYESRNKNSVA,WAKTRES,QQYHRLPLD
270 nM,3/3,3/9,KSSQWVLYESRNKNSVA,WASTRES,QQMHRLALS
76 nM,1/3,0/9,KSSQSELYESRNKHSVA,WASTRES,QQYHGLPLS
nd,0/3,3/9,LSSQSVLYESRNKNSVY,WASTRES,CQYHRLPLS
13 nM,3/3,0/9,KSSQSNLYPVRNKNSVA,WASTRES,QQYHRLPLS
nd,0/3,2/9,KSHQSPLYESRNKNSVA,WASTRES,QQYHRGPLS
nd,0/3,0/9,KSSQSVLYESRNKNSVA,PASTRES,QQIHRLPLQ
nd,0/3,0/9,KSSQSVLYESRNKNSTA,WASTDEV,QQYHRLPLS
nd,0/3,1/9,KSSQYVLYESRNKNSVA,PASTRES,QQYHRLPLS
nd,0/3,3/9,KNSQSVLYESRNKNSVA,WASFRES,QQYHRSPLS
8.0 nM,3/3,0/9,KSSQSVLYESYNKESVA,WASTRES,QQYHRLPKS
240 µM,2/3,6/9,KSSQSVLYESRNKNSVA,WARTRAS,QQHHRLPLS
530 nM,3/3,2/9,KSSQSVLYEGRNKNSLA,WVSTRES,QQYHRLPLS
3.1 µM,1/3,1/9,KSSHSVLYESRNKNSHA,WASTRES,FQYHRLPLS
nd,0/3,0/9,KSSQSVLYESRNKNSNA,WASTQES,QQYHQLPLS
nd,0/3,0/9,KSSQSVLYESRNKNSLA,WASTRES,QQYWRLMLS
510 nM,3/3,1/9,KSSQSVLPLSRNKASVA,WASTRES,QQYHRLPLS
nd,0/3,3/9,WSSQSVLYESRNKFSVA,WASTRES,QMYHRLPLS
880 nM,3/3,0/9,KSSQSVLYASRNKNNVA,WASTRES,QQYHRLTLS
7.2 µM,1/3,2/9,KSSQSVLYESRNLNSVA,WASTREK,QPYHRLPLS
33 nM,3/3,0/9,KSSQSVLYESRNKNSVA,WASDRES,QQYVRLWLS
7.6 nM,3/3,1/9,KSSQSVWYESRNKNSVA,WASTRES,QQYEELPLS
200 µM,1/3,2/9,KSSQSVLYESRNKNSVA,WQSTRES,KQYHRRPLS
nd,0/3,0/9,KSSQSVLYESRNKNSVK,WASTRRS,QIYHRLPLS
nd,0/3,0/9,KSSQSVLYESINKNSVA,IASTRES,QQYHRLPLS
710 pM,3/3,3/9,KISQSVLYESRNKNAVA,WASTRES,QQYHRLPLS
6.0 nM,3/3,0/9,KSSQSVVYESRNKNSVA,WASTRES,QNYHRLPLS
600 nM,3/3,0/9,KSSQSVLYISRNKNSVA,WASTRES,QAYHRLPLS
11 µM,3/3,1/9,KSSQSVLYESRNKNSVA,WASKRES,QQYYDLPLS
53 nM,3/3,0/9,KSSWGVLYESRNKNSVA,WASTRES,QQYHRLPLS
6.9 nM,3/3,0/9,KSSQTVLYESRNKNSVA,WANMRES,QQYHRLPLS
nd,0/3,0/9,KSSQSVLYEMRNKNSVV,WASTRES,QQYHRLSLS
nd,0/3,0/9,QSSQSVLYESRNKMSVM,WASTRES,QQYHRLPLS
180 nM,3/3,0/9,KSSQLVLHESRNKNSVA,WASTRES,QQYHRLPLS
11 nM,3/3,1/9,KDRQEVLYESRNKNSVA,WASTRES,QQYHRLPLS
25 µM,1/3,4/9,KISQSVLYESENKNSVA,WASTRES,QQLHRLPLS
4.6 µM,1/3,3/9,KSSQSVLYESYDKNSVA,WASTRES,QQYHRLHLS
76 nM,3/3,4/9,KNPQSVLYESRNGNSVA,WASTRES,QQYHRLPLS
94 nM,3/3,2/9,KSSQSVLYTSRNKNSVA,WASTRNM,QQYHRLPLS
4.1 µM,2/3,0/9,KSSQSVLYESRNKNSVA,WASTRES,VQYSRLNLS
150 µM,1/3,2/9,KSSQSVLYESRNKNSVA,WASTRES,QRCHYLPLS
nd,0/3,3/9,KSSQSVLYESRNKNSVA,WRSTRES,QQYQRLPLP
27 nM,3/3,2/9,KSSSSVLYESRNANSVA,WVSTRES,QQYHRLPLS
5.9 µM,1/3,0/9,KSSQSVLYESRNKNSVA,WASTEES,QVYHRLPES
1.9 µM,2/3,0/9,KSSQSVLYESRNVNSVA,WASTWES,QQYHRLPLS
nd,0/3,3/9,KSSQSVLEESRNKNEVA,WASTRES,QQYHRLMLS
nd,0/3,1/9,KPSQSVLYESRNMNSVA,WQSTRES,QQYHRLPLS
16 nM,3/3,1/9,KSSQSVLYESRNKNSVA,WASTREI,QLYHRLPLS
34 nM,3/3,3/9,KSSQSVLYESRNKNSVA,WASTRES,QRYHRLPYA
4.8 nM,3/3,4/9,KSDQSVLYESRKKNSVA,WASTREE,QQYHRLPLS

Excerpt, the final 8 entries:

CDR-L1,CDR-L2,CDR-L3,apparent Kd,seen in,signal with controls
KSSSSVLYESRNANSVA,WVSTRES,QQYHRLPLS,27 nM,3/3,2/9
KSSQSVLYESRNKNSVA,WASTEES,QVYHRLPES,5.9 µM,1/3,0/9
KSSQSVLYESRNVNSVA,WASTWES,QQYHRLPLS,1.9 µM,2/3,0/9
KSSQSVLEESRNKNEVA,WASTRES,QQYHRLMLS,nd,0/3,3/9
KPSQSVLYESRNMNSVA,WQSTRES,QQYHRLPLS,nd,0/3,1/9
KSSQSVLYESRNKNSVA,WASTREI,QLYHRLPLS,16 nM,3/3,1/9
KSSQSVLYESRNKNSVA,WASTRES,QRYHRLPYA,34 nM,3/3,3/9
KSDQSVLYESRKKNSVA,WASTREE,QQYHRLPLS,4.8 nM,3/3,4/9

Parent in this assay: reference entry 4.4 nM, copy in this library 48 nM. As a blank, each scFv also met three strains without target: over library AAYL50, 18% of these pairings were detected, typically at 15 µM and seldom below 970 nM. Also given: how often the same scFv was detected with the empty control strains.